Experiments:
[1] = biological target: Somatostatin receptor type 5 (Homo sapiens, UniProt P35346); assay: In vitro inhibition of [125I][Leu8,D-Trp22,Tyr25] somatostatin 28 binding to human somatostatin receptor type 5 expressed in CHO-K1 cells; (n=3); assay type: cell-based
[2] = biological target: Somatostatin receptor type 3 (Homo sapiens, UniProt P32745); assay: In vitro inhibition of [125I][Leu8,D-Trp22,Tyr25] somatostatin 28 binding to human somatostatin receptor type 3 expressed in CCL39 cells; (n=3); assay type: cell-based
Procedure, shortened: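 Receptor autoradiography on sections of cell membrane pellets from CHO-K1 (sst1, sst5) or CCL39 (sst2–4) cells stably expressing the human subtype. Full displacement of [125I][Leu8,D-Trp22,Tyr25]somatostatin 28 by unlabeled peptide, 0.1–1000 nM, with somatostatin 28 run in parallel as control. IC50 derived by computer-assisted image analysis, quantified against cross-calibrated [125I] tissue standards.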

Protein sequences, listed by entry. Tags and fused reporters are not part of them. Lines headed by an entry give the natural chain unless they say otherwise; changes in a name come on top.
UniProt P35346: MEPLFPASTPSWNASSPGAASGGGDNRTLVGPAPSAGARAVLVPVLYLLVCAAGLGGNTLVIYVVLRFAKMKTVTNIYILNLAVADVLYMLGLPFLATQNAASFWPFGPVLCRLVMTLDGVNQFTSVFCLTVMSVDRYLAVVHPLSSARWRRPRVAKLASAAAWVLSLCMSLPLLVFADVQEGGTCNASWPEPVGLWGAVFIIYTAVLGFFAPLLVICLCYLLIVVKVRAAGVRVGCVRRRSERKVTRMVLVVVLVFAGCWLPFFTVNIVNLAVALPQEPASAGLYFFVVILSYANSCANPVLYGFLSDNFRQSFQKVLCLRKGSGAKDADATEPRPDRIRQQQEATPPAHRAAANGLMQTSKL
UniProt P32745: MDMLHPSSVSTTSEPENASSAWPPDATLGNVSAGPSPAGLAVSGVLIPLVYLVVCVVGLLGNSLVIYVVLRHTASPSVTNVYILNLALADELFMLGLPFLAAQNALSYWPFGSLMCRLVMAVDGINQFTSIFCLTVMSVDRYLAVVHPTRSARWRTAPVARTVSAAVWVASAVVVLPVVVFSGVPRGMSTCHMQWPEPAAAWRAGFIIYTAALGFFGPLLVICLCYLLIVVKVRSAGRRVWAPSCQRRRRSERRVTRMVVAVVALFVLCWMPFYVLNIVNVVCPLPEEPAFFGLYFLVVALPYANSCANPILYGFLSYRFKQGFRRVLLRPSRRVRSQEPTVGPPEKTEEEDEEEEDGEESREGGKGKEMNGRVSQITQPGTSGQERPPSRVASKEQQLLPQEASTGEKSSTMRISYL

EDOTREOTIDE YTTRIUM
IC50 [1]: 114 nM | IC50 [2]: 389 nM
